# Assay results published in PMC5033714 (Neuron, 2016).
# By UniProt entry, the sequences of proteins in these tests, tags left out. Where a name states a change or a piece, a line headed by the entry shows the natural chain unless it says otherwise. Residues count along the entry.
# UniProt Q00959, 20-1464 limits assumed: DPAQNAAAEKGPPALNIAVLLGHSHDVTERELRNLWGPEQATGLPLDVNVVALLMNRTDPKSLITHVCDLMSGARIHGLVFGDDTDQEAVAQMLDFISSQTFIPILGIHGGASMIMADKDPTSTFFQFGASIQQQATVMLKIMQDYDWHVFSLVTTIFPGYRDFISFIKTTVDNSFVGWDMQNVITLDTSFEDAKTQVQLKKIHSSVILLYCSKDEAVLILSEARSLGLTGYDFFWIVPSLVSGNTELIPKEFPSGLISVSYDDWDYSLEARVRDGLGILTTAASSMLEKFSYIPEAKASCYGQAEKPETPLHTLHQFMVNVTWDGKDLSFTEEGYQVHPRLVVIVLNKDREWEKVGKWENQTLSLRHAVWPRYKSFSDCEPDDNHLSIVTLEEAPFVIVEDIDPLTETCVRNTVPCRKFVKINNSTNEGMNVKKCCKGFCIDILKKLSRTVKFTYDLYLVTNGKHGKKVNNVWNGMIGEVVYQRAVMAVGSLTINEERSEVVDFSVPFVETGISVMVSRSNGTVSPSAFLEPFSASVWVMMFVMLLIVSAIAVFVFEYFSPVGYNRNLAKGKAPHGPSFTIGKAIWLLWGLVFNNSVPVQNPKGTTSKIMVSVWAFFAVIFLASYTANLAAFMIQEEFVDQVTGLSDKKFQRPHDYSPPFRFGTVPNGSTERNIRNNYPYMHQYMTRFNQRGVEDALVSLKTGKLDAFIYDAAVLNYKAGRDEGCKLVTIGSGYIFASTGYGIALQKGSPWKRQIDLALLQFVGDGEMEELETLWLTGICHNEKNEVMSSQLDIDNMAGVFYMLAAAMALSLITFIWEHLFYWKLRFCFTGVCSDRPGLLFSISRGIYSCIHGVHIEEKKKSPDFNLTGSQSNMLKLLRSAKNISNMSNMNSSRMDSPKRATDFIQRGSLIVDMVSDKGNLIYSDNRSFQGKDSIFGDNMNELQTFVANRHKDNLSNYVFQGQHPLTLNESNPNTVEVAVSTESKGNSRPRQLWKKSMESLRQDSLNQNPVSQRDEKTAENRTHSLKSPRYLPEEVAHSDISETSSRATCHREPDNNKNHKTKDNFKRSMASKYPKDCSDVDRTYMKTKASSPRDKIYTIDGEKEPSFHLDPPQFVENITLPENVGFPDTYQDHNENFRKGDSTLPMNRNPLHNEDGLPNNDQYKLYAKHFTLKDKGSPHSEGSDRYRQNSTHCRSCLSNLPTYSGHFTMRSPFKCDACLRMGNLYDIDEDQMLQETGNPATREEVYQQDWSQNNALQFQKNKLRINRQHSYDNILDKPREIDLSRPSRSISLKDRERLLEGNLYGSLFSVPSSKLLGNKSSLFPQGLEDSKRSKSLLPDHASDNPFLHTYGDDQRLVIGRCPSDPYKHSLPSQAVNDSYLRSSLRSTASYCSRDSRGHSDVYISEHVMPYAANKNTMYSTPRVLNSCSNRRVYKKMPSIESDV
# Target: GluN1-CC/2A receptors (GluN1-N499C+Q686C) (Rattus norvegicus, UniProt P35439+Q00959, N499C/Q686C)
# Assay type: cell-based
# Details: 100 μM glutamate alone; glycine 300 μM, 7CKA 10 μM, TCN-201 5 μM, MPX-004 10 μM, MPX-007 30 μM
structure (smiles),measurement,value
NCC(=O)O [glycine],effect on glutamate-activated responses from crosslinked GluN1-CC/2A,not potentiated
